Assay results taken from PubChem BioAssay AID504847 (National Center for Advancing Translational Sciences (NCATS), 2011).
“And” between values parts separate entries of the source, which are not always exact repeats. Equal entries are not always repeated. Only a part is listed here, and it is no random draw. Some of these compounds have results that are not shown, active ones among them. Inconclusive results are not listed. The source made the active and inactive calls. The call rests on the fitted dose curve; in most records, active means well fitted inhibition curve with a large enough effect; inconclusive means small, poorly fitted or top-dose-only effect, or another doubt; inactive means no such curve, though single readings can be large or run the other way.

The chains behind the UniProt entries cited, without tags or fusion partners.
UniProt P11473, whole entry: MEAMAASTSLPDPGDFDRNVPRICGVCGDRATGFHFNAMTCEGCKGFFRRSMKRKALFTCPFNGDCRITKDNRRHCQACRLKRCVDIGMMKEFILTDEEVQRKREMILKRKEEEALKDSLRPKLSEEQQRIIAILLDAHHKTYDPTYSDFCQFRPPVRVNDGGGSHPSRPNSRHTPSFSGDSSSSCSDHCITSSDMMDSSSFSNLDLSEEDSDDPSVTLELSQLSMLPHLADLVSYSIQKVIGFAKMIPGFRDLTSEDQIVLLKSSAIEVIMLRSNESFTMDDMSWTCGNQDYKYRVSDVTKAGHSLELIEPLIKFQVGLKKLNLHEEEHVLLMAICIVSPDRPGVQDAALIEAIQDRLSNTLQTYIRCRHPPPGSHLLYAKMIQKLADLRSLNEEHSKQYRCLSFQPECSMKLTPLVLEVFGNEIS

Target: Vitamin D3 receptor (Homo sapiens) (UniProt P11473)
Test: Inhibitors of the vitamin D receptor (VDR): qHTS
Conditions: VDR-SRC2-3 peptide fluorescence polarization, 2 h; stronger effect = lower value
On the % scale 0 is the no-effect control and ±100 the full control effect.

| SMILES | max response, negative = inhibition |
| --- | --- |
| CC(C)COc1ccc(C(=O)NCC2(N(C)C)CCCCC2)cc1 | inactive: 8.43% |
| COc1cccc(C(=O)NCC2(N3CCOCC3)CCCCC2)c1 | inactive: 8.99% |
| O=C(OC1CN2CCC1CC2)C(CO)(c1ccccc1)c1ccccc1 (centres undefined) | inactive: 2.99% |
| O=C(OCCN1CCCC1)C(O)(c1ccccc1)c1ccccc1 | inactive: 2.28% |
| CC(C)Oc1ccc(C(=O)NCC2(N(C)C)CCCCC2)cc1 | inactive: 4.33% and inactive: -10.4% |
| CN(C)c1cccc(C(=O)NCC2(N(C)C)CCCCC2)c1 | inactive: -0.422% |
| COc1ccc(Br)c(C(=O)NCC2(N3CCCCC3)CCCCC2)c1 | inactive: 1.88% |
| Cc1cccc(C(=O)NCC2(N(C)C)CCCCC2)c1 | inactive: 12.7% |
| COc1cc(C(=O)NCC2(N(C)C)CCCCC2)c([N+](=O)[O-])cc1OC | inactive: -11.4% |
| CN(C)C1(CNC(=O)c2ccc(Br)cc2)CCCCC1 | inactive: -1.91% |
| O=C(NCC1(N2CCCCC2)CCCCC1)c1cccc(Cl)c1 | inactive: 5.94% |
| COc1ccc(Cl)cc1C(=O)NCC1(N(C)C)CCCCC1 | inactive: -28.1% |
| COc1cccc(C(=O)NCC2(N3CCCCC3)CCCCC2)c1 | inactive: -2.42% |
| COc1ccc(C(=O)NCC2(N(C)C)CCCCC2)cc1Cl | inactive: 7.7% |
| CCCCOc1ccccc1C(=O)NCC1(N(C)C)CCCCC1 | inactive: 3.29% |
| CN1CCCC(OC(=O)C(O)(c2ccccc2)c2ccccc2)C1 (centres undefined) | inactive: 7.61% |
| CN(C)c1ccc(C(=O)NCC2(N(C)C)CCCCC2)cc1 | inactive: 0.531% |

| SMILES | max response, negative = inhibition |
| --- | --- |
| CN(C)C1CCCC1OC(=O)C(O)(c1ccccc1)c1ccccc1 (centres undefined) | inactive: -24% |
| Cc1ccccc1C(=O)NCC1(N2CCCCC2)CCCCC1 | inactive: -14.4% |
| CN(C)C1(CNC(=O)c2ccccc2[N+](=O)[O-])CCCCC1 | inactive: 4.74% |
| CCOc1cccc(C(=O)NCC2(N(C)C)CCCCC2)c1 | inactive: 4.49% |
| COc1ccc(C(=O)NCC2(N(C)C)CCCCC2)cc1 | inactive: -3.7% |
| O=C(NCC1(N2CCCCC2)CCCCC1)c1cccc(Br)c1 | inactive: -4% |
| CCN1CCCC(OC(=O)C2(O)c3ccccc3C=Cc3ccccc32)C1 (centres undefined) | inactive: -3.38% |
| Cc1cc(C(=O)NCC2(N3CCCCC3)CCCCC2)ccc1[N+](=O)[O-] | inactive: -13.9% |
| O=C(NCC1(N2CCCCC2)CCCCC1)c1cc(F)c(F)cc1Cl | inactive: -3.3% |
| C=CCN1CCN(CCOC(=O)C(O)(c2ccccc2)c2ccccc2)CC1 | inactive: 5.06% |
| O=C(NCC1(N2CCCCC2)CCCCC1)c1cc([N+](=O)[O-])ccc1Cl | inactive: 0.606% |
| Cc1ccc(C(=O)NCC2(N3CCCCC3)CCCCC2)cc1 | inactive: -6.97% |
| CN(C)C1(CNC(=O)c2ccccc2F)CCCCC1 | inactive: 14.2% |
| COc1cc(SC)ccc1C(=O)NCC1(N(C)C)CCCCC1 | inactive: 13.8% |
| CCN(CC)CC(C)C(C)OC(=O)C(O)(c1ccccc1)c1ccccc1 (centres undefined) | inactive: 8.48% |
| CN(C)C1(CNC(=O)c2cccc(Cl)c2)CCCCC1 | inactive: 10.2% |
| CC(C)N1C(=O)CC2(CCN(CCOC(=O)C(O)(c3ccccc3)c3ccccc3)CC2)C1=O | inactive: 2.22% |
